Where two headings read alike, the source gives them in different places.
Target: T1, vesicular monoamine transporter 2 (VMAT2) (Rattus norvegicus, UniProt Q01827)
T1 construct: Tissue homogenates of striatum (dissected from rat brain) were prepared; from tissue; host or cells: rat brain striatum homogenate
Assay: In vitro binding assay for Ki determination, rat striatum homogenates
Conditions: Avg ± SD, n = 3, read-out: Ki of cold competing drug
Method: Tissue homogenates of striatum (dissected from rat brain) were prepared in 50 mM of HEPES, pH 7.5, and 0.3 M of sucrose. Compounds were examined for their ability to compete for the binding of ^18F-AV-133 or ^18F-AV-133-D6 (^18F-Ia) (0.15-0.2 nM) at concentrations ranging from 10^−7 to 10^−12 M. The binding assays were performed in glass tubes (12×75 mm) in a final volume of 0.25 mL. […] After incubation for 90 min at room temperature, the bound ligand was separated from the free ligand by filtration through glass fiber filters. The filters were washed three times with 4 mL of ice-cold PBS buffer, pH 7.4 and the radioactivity on the filters was counted with a gamma counter (WIZARD^2, Perkin-Elmer).

By UniProt entry, the sequences of proteins in these tests, tags left out.
UniProt Q01827, whole entry: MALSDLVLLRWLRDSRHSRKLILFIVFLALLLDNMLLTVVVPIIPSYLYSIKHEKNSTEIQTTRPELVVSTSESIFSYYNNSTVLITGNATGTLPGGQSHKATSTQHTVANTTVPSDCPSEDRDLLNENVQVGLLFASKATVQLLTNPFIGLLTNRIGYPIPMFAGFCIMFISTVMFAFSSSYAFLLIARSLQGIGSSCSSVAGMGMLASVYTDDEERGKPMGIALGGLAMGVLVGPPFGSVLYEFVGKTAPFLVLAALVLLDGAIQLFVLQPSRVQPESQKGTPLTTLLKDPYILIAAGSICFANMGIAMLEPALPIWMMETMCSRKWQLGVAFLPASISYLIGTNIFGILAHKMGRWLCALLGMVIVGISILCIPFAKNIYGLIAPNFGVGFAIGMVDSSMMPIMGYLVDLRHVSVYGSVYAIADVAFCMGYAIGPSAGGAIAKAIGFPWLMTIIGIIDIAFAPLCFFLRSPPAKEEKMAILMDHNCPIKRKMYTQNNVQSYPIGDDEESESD

SMILES: COc1cc2c(cc1OC)C1CC(=O)[C@H](CC(C)C)CN1CC2 (mixture of isomers) [(±) TBZ, (±)-tetrabenazine]
- Ki (hot ligand ^18F-AV-133-D6): 1.65 ± 0.07 nM
- Ki (hot ligand ^18F-AV-133): 1.49 ± 0.24 nM

Source: US12544463B2, “Deuterium substituted positron emission tomography (PET) imaging agents and their pharmacological application” (Five Eleven Pharma Inc., priority 2017, dated 2026)
